# Target: T1, Corticotropin-releasing factor receptor 1 (Rattus norvegicus, UniProt P35353)
# T1 sequence (P35353 whole entry): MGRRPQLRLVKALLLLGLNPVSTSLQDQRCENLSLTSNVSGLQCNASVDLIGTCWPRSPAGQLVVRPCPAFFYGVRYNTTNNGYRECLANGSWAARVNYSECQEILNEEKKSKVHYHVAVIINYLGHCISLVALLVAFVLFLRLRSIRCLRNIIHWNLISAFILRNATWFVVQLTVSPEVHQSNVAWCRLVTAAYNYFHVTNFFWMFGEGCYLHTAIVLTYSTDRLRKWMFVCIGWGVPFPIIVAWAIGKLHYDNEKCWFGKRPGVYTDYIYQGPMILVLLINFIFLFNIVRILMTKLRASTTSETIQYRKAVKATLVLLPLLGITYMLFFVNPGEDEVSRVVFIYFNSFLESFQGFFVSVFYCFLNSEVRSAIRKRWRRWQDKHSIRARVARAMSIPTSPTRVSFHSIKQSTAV
# Test: Inhibition of [125I]- Ovine CRF binding to rat frontal cortex corticotropin releasing factor 1 receptor
# Format: tissue-based
# In short: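 Frozen rat frontal cortex homogenate (25 μg/well) in 50 mM HEPES pH 7.0 with 10 mM MgCl₂, 2 mM EGTA, protease inhibitors, 0.005% Triton X-100, bacitracin and 0.1% ovalbumin. Bound ligand collected by filtration on PEI-treated filters and gamma counted. Nonspecific binding defined with 1 μM DMP696.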
row,Structure (SMILES),IC50
1,CCc1nc2c(n1Cc1cccc3ccccc13)C(=O)N(C)CN2c1ccc(Cl)cc1Cl,9 µM
2,CCc1nc2c(c(=O)n(C)c(=O)n2-c2ccc(Cl)cc2Cl)n1C(CC)CC,2.99 µM
